{"source": "patent US20120258109A1", "binders": {"B1": {"name": "Antibody I (antibody, human IgG4 S228P, kappa, F234A L235A)", "heavy": "QVQLVQSGAEVKKPGSSVKVSCKASGYTFTDAYINWVRQAPGQGLEWMGWIWPGPVITYYNPKFKGRVTITADKSTSTAYMELSSLRSEDTAVYYCARREVLSPFAYWGQGTTVTVSSASTKGPSVFPLAPCSRSTSESTAALGCLVKDYFPEPVTVSWNSGALTSGVHTFPAVLQSSGLYSLSSVVTVPSSSLGTKTYTCNVDHKPSNTKVDKRVESKYGPPCPPCPAPEAAGGPSVFLFPPKPKDTLMISRTPEVTCVVVDVSQEDPEVQFNWYVDGVEVHNAKTKPREEQFNSTYRVVSVLTVLHQDWLNGKEYKCKVSNKGLPSSIEKTISKAKGQPREPQVYTLPPSQEEMTKNQVSLTCLVKGFYPSDIAVEWESNGQPENNYKTTPPVLDSDGSFFLYSRLTVDKSRWQEGNVFSCSVMHEALHNHYTQKSLSLSLG", "light": "DIVMTQSPDSLAVSLGERATINCRSSQSIVHSTGNTYLEWYQQKPGQPPKLLIYKVSNRFSGVPDRFSGSGSGTDFTLTISSLQAEDVAVYYCFHGTHVPYTFGGGTKVEIKRTVAAPSVFIFPPSDEQLKSGTASVVCLLNNFYPREAKVQWKVDNALQSGNSQESVTEQDSKDSTYSLSSTLTLSKADYEKHKVYACEVTHQGLSSPVTKSFNRGEC"}}, "molecular_target": "TGF-alpha and Epiregulin expressed on HT-29 cells", "experiment": "cell-based or functional assay", "data": [{"binder": "B1", "values": [{"measurement": "Mean Ringspot Total Intensity of Fluorescence, HT-29 internalization, 40 ug/mL, 0 min post addition", "result": 89}, {"measurement": "Mean Ringspot Total Intensity of Fluorescence, HT-29 internalization, 40 ug/mL, 5 min post addition", "result": 261}, {"measurement": "Mean Ringspot Total Intensity of Fluorescence, HT-29 internalization, 40 ug/mL, 15 min post addition", "result": 717}, {"measurement": "Mean Ringspot Total Intensity of Fluorescence, HT-29 internalization, 40 ug/mL, 30 min post addition", "result": 1490}, {"measurement": "Mean Ringspot Total Intensity of Fluorescence, HT-29 internalization, 40 ug/mL, 60 min post addition", "result": 4130}, {"measurement": "Mean Ringspot Total Intensity of Fluorescence, HT-29 internalization, 40 ug/mL, 120 min post addition", "result": 4450}, {"measurement": "Mean Ringspot Total Intensity of Fluorescence, HT-29 internalization, dose 0 ug/ml (background), 2 h", "result": 1460}, {"measurement": "Mean Ringspot Total Intensity of Fluorescence, HT-29 internalization, dose 0.34 ug/ml, 2 h", "result": 2430}, {"measurement": "Mean Ringspot Total Intensity of Fluorescence, HT-29 internalization, dose 0.69 ug/ml, 2 h", "result": 3440}, {"measurement": "Mean Ringspot Total Intensity of Fluorescence, HT-29 internalization, dose 1.38 ug/ml, 2 h", "result": 4350}, {"measurement": "Mean Ringspot Total Intensity of Fluorescence, HT-29 internalization, dose 2.75 ug/ml, 2 h", "result": 6500}, {"measurement": "Mean Ringspot Total Intensity of Fluorescence, HT-29 internalization, dose 5.5 ug/ml, 2 h", "result": 8470}, {"measurement": "Mean Ringspot Total Intensity of Fluorescence, HT-29 internalization, dose 11 ug/ml, 2 h", "result": 11500}, {"measurement": "Mean Ringspot Total Intensity of Fluorescence, HT-29 internalization, dose 22 ug/ml, 2 h", "result": 15100}, {"measurement": "Mean Ringspot Total Intensity of Fluorescence, HT-29 internalization, dose 44 ug/ml, 2 h", "result": 17500}]}]}
